Test system: PAIGB expression in ROS 17/2.8 cells
Assay: Real time PCR of PAIGB expression in ROS 17/2.8 cells
Assay type: cell-based, rat
Description: Applicants performed multiplex real time PCR (TaqMan) analysis on previously DNAsed samples using gene specific probe and primers and 18S ribosomal RNA probe and primer sets purchased from Applied Biosystem. (Foster City, Calif.) The samples were DNAsed according to the protocol provided by Ambion (DNA-free kit). TaqMan probe and primers for PAIGB was identify using Primer Express computer program. The sequence for rat PAIGB TaqMan probe was 6FAM-5′[…] (SEQ ID NO: 16) forward and reverse primers were 5′[…] 3′ (SEQ ID NO:17) and 5′ […] 3′ (SEQ ID NO:18) respectively. The final concentrations for probes were 500 nM and 40 nM for PAIGB and 18S ribosomal RNA or GAPDH respectively. The concentrations of the primers were 500 nM for PAIGB forward and reversed primers while 18S primers were 10 and 20 nM for forward and reversed primer respectively or 40 nM for GAPDH primers. Standards for rat samples were made from rat tibia or brain RNA in the range of 250 ng to 0.1 ng, while standards for mouse specific TaqMan were made from mouse brain RNA and human standards from human brain RNA (Clonetech, Palo Alto, Calif.) spanning the same range of concentration. Primers and probes for mouse PAIGB were: forward 5′ […] 3′ (SEQ ID NO:19), reverse, 5′ […] 3′ (SEQ ID NO:20) anti-sense and probe 5′ 6FAM-[…] (SEQ ID NO:21). […]

B1: BMP2: bone morphogenic protein 2 (protein, UniProt P12643 283-396, looked up)
Bone morphogenetic protein 2: QAKHKQRKRLKSSCKRHPLYVDFSDVGWNDWIVAPPGYHAFYCHGECPFPLADHLNSTNHAIVQTLVNSVNSKIPKACCVPTELSAISMLYLDENEKVVLKNYQDMVVEGCGCR
induction of PAIGB expression after 24 hours of treatment (300 ng/ml, 24 hours): did not induce
effect on PAIGB expression after 4 hours of treatment (4 hours, estrogen 10 nM, tamoxifen 0.1 μM, BMP2 300 ng/ml, calcitonin 5 ng/ml): did not have any effect

Reference: US7258999B2, “PTH responsive gene” (Wyeth, priority 2002, dated 2007)
